Earlier results on three molecules are cited in patent publication US12220497B2, “Materials and methods for decontaminating animal integument” (dated 2025).

The test system of one data set is rabbit. The note with it: intact skin.
The test system of the next data set is rat. The note with it: intact skin.

`C=CC#N`: in the data set on rabbit, the “dermal LD50 (rabbit)” value is 63 mg/kg.
With mercuric chloride, in the data set with rat, the “dermal LD50 (rat)” value is 41 mg/kg.
In the case of `[N-]=[N+]=[N-]`, the “dermal LD50 (rabbit)” value in the data set with rabbit is on record as 20 mg/kg.
